Laboratory results published in PubChem BioAssay AID1457 (National Center for Advancing Translational Sciences (NCATS), 2008).
Values joined by “and” are separate entries in the source; they are usually repeats but may differ in a detail not shown here. Equal values may be shown once. This is a selection; strong and weak results do not stand in their true shares. Active and inactive are the calls of the source. Calls come from the whole dose curve; as a rule, active = well fitted inhibition curve with a large enough effect; inconclusive = small, poorly fitted or top-dose-only effect; inactive = no such curve, though single readings can be large or run the other way.

Assay: qHTS Assay for Identifying the Cell-Membrane Permeable IMPase Inhibitors: Potentiation with Lithium;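 note: IP1 builds up when IMPase is blocked and the TR-FRET signal falls; plate controls were basal vehicle for no effect and high inhibitor control for full effect; nearly all actives have a fitted effect of over 50% in size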
Conditions: CHO-M1 cells, IP1 TR-FRET (IP-One), carbachol + lithium; at 59.4 µM (top of the series)

SMILES	activity, negative = IMPase inhibition
O=[N+]([O-])C(Cl)(Cl)Cl	inactive: 6.25%
CN(CCCl)CCCl	inactive: 18.1% and inactive: 12.9%
